Measured values: ChEMBL document CHEMBL1127339, “Tetrapeptide CCK agonists: structure-activity studies on modifications at the N-terminus” (J Med Chem, 1994)

Assay: Maximum response at 10e-4 M in PI hydrolysis relative to maximal response elicited by CCK-8 in guinea pig
Conditions: Cavia porcellus

Cc1ccccc1NC(=O)NCCCC[C@H](NC(=O)[C@H](Cc1c[nH]c2ccccc12)NC(=O)C(F)(F)F)C(=O)N[C@@H](CC(=O)O)C(=O)N(C)[C@@H](Cc1ccccc1)C(N)=O
Max response: 99%
